These results are taken from US20220010006A1 (BEIJING HANMI PHARMACEUTICAL, published 2022).

In assay [1] the target is human TNFα (human) (UniProt P01375).
The target of assay [2] is human IL-17A (human) (UniProt Q16552).
Assay [3] shares this target. This is another data set of the same source.
In assay [4] the target is human TNFα (human) (UniProt P01375). The source holds these as a separate data set.
The target is the same in assay [5]. This is another data set of the same source.
Assay [6] deals with transmembrane TNFα on Jurkat/tmTNFα cells. Put plainly: cell-based or functional assay.
Another assay deals with monkey IL-17A (monkey). The assay can be described thus: ELISA, plate-coated antigen 1 µg/mL, anti-human IgG-HRP. (In general: In an ELISA, binding on a coated surface is turned into a signal by an enzyme label.)
Another assay has as its target monkey TNFα (monkey) (UniProt P79337). The assay is described as above.
Assay [7] concerns the target human IL-17A (human) (UniProt Q16552). Described as above.
Assay [8] deals with human TNFα (human) (UniProt P01375). Described as above.
The target is the same in assay [9]. The assay can be described thus: SPR, Biacore X100, antibody captured on Protein A chip, human TNFα as analyte. A general note: Surface plasmon resonance follows binding to a sensor surface in real time, without labels.
Assay [10] concerns the target human IL-17A (human) (UniProt Q16552). The assay can be described thus: SPR, Biacore X100, antibody captured on Protein A chip, human IL-17A as analyte.
For assay [11], the target named is human TNFα (human) (UniProt P01375). The assay can be described thus: blocking ELISA: human TNFα coated, antibody titrated, blocked ligand biotin-labeled TNFR2-Fc, streptavidin-HRP, OD450; no IL-17A added.
Assay [12] shares this target. Put plainly: blocking ELISA: human TNFα coated, antibody titrated, blocked ligand biotin-labeled TNFR2-Fc, streptavidin-HRP, OD450; human IL-17A added.

In the assay with human TNFα (human) [1], “anti-human TNFα/anti-human IL-17A heterodimeric antibody BH1657 (bispecific antibody)” returned an EC50 of inhibition of TNFα-induced IL-6 secretion of HFF-1 cells of 0.43 nM. This substance also registered an EC50 of inhibition of IL-17A-induced IL-6 secretion of HFF-1 cells in the assay with human IL-17A (human) [2] of 0.479 nM. The same substance showed an EC50 of inhibition of IL-6 secretion (OD450) of HFF-1 cells stimulated with TNFα and IL-17A together; one value for the joint neutralisation of both cytokines with human IL-17A (human) [3] of 131 pM. For the same substance, the EC50 of inhibition of IL-6 secretion (OD450) of HFF-1 cells stimulated with TNFα and IL-17A together; one value for the joint neutralisation of both cytokines with human TNFα (human) [4] stood at 131 pM. Besides, in the assay with human TNFα (human) [5], the EC50 of protection of L-929 cells from human TNFα (viability, MTS, OD490); IL-17A added stood at 0.347 nM and the EC50 of protection of L-929 cells from human TNFα (viability, MTS, OD490); no IL-17A added stood at 1.14 nM. In addition, in assay [6], the Apoptosis ratio (%) of Jurkat/tmTNFα cells, BH1657 1 µg/mL is 18.5%; the Apoptosis ratio (%) of Jurkat/tmTNFα cells, BH1657 2 µg/mL is 18.6%; the Apoptosis ratio (%) of Jurkat/tmTNFα cells, BH1657 10 µg/mL stood at 17.6%; the Apoptosis ratio (%) of Jurkat/tmTNFα cells, BH1657 20 µg/mL is 17.8%. In the assay with monkey IL-17A (monkey), the EC50 (as a rule, the concentration that produces a half-maximal response) came to 0.033 nM. Moreover, in the assay with monkey TNFα (monkey), the EC50 was found to be 0.034 nM.
“anti-human TNFα/anti-human IL-17A heterodimeric antibody BH1657 (bispecific antibody; other documents disagree on this pair)”: the EC50 with human IL-17A (human) [7] amounted to 0.03 nM; in the assay with human TNFα (human) [8] it was 0.042 nM; with human TNFα (human) [11], 21.1 nM; with human TNFα (human) [12], 12.2 nM. For the same substance, the figures for the Kd with human TNFα (human) [9] and with human IL-17A (human) [10] were 0.0203 nM and 0.0116 nM, respectively. The koff (in general, the rate constant with which the complex falls apart) in the assay with human TNFα (human) [9] came to 4.98e-05 s⁻¹; with human IL-17A (human) [10], 6.81e-05 s⁻¹. Moreover, the kon (as a rule, the second-order rate constant of association) in the assay with human TNFα (human) [9] is 2.45e+06 M⁻¹ s⁻¹; in the assay with human IL-17A (human) [10], 5.87e+06 M⁻¹ s⁻¹.
